These results are taken from publication PMC3083246 (Journal of medicinal chemistry, 2011).

Sequences of proteins named here, by UniProt entry; tags and fusion partners are left off. A change or cut given only in a name is not applied to a line headed by its entry.
UniProt O26232: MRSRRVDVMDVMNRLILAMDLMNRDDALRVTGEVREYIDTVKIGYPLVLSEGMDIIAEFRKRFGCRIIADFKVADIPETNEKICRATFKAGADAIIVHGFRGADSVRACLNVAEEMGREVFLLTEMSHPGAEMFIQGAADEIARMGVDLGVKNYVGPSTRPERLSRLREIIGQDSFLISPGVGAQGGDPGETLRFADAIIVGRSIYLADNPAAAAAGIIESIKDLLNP

As usually defined, the kinact is the maximal first-order rate at which the target is inactivated.

This experiment has as its target Mt ODCase (Methanothermobacter thermautotrophicus, UniProt O26232). In words: Time-dependent inactivation of Mt ODCase. The class given is biochemical, Methanobacterium thermoautotrophicum. The settings on record: read-out: kinact, Mt ODCase.

As to `[N-]=[N+]=Nc1cn([C@@H]2O[C@H](CP(=O)(O)O)[C@@H](O)[C@H]2O)c(=O)[nH]c1=O` [Compound 14, 6-azido-UMP, reference compound], the kinact was 0.17 s⁻¹. For `[N-]=[N+]=Nc1cc(=O)[nH]c(=O)n1[C@@H]1O[C@H](CP(=O)(O)O)[C@@H](O)[C@H]1O` [Compound 34, 6-Azido-2′-deoxy-2′-fluoro-β-D-uridine-5′-O-monophosphate], the kinact is 0.00111 s⁻¹.
